Measurements published in paper PMC7279487, “Dual Target Ligands with 4-tert-Butylphenoxy Scaffold as Histamine H3 Receptor Antagonists and Monoamine Oxidase B Inhibitors” (International Journal of Molecular Sciences, 2020).

Chains of the proteins cited; added tags and fusions are not shown.
UniProt P27338, whole entry: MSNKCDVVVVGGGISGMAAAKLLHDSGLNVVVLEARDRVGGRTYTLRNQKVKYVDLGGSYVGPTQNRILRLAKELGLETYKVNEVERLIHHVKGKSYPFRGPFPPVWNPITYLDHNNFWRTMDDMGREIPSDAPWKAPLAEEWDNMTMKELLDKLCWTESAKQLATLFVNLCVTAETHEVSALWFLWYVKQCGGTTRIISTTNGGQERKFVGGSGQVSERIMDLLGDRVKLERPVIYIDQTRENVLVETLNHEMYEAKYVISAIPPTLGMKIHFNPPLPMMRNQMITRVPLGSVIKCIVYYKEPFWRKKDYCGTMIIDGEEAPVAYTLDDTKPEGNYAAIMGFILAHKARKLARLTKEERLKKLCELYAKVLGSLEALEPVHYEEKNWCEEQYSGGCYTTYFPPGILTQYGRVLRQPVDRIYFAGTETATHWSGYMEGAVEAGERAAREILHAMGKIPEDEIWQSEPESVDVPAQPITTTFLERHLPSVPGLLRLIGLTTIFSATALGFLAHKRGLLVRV

Biological target: T1, hMAO B (Homo sapiens, UniProt P27338)
T1 construct: purchased Sigma Aldrich M7441
Test: hMAO B reversibility studies
Assay type: biochemical
Experimental: Reversibility of MAO B inhibitors was tested as described previously with slight modification. Two experiments were performed simultaneously. In the first experiment, inhibitors (in concentrations corresponding to their IC80 values) were incubated with the enzyme and p-tyramine (10 μM) for 22 min (measuring fluorescence every two minutes).

With `C#CCN[C@@H]1CCc2ccccc21` [rasagiline, reference compound] the “effect of 30 min preincubation with enzyme on hMAO B inhibition” value was “showed higher inhibition when preincubated with hMAOB”.
